Experimental data published in ChEMBL document CHEMBL3425491, “Development of novel ACK1/TNK2 inhibitors using a fragment-based approach” (J Med Chem, 2015).

Sequences of proteins named here, by UniProt entry; tags and fusion partners are left off. A change or cut given only in a name is not applied to a line headed by its entry.
UniProt Q07912: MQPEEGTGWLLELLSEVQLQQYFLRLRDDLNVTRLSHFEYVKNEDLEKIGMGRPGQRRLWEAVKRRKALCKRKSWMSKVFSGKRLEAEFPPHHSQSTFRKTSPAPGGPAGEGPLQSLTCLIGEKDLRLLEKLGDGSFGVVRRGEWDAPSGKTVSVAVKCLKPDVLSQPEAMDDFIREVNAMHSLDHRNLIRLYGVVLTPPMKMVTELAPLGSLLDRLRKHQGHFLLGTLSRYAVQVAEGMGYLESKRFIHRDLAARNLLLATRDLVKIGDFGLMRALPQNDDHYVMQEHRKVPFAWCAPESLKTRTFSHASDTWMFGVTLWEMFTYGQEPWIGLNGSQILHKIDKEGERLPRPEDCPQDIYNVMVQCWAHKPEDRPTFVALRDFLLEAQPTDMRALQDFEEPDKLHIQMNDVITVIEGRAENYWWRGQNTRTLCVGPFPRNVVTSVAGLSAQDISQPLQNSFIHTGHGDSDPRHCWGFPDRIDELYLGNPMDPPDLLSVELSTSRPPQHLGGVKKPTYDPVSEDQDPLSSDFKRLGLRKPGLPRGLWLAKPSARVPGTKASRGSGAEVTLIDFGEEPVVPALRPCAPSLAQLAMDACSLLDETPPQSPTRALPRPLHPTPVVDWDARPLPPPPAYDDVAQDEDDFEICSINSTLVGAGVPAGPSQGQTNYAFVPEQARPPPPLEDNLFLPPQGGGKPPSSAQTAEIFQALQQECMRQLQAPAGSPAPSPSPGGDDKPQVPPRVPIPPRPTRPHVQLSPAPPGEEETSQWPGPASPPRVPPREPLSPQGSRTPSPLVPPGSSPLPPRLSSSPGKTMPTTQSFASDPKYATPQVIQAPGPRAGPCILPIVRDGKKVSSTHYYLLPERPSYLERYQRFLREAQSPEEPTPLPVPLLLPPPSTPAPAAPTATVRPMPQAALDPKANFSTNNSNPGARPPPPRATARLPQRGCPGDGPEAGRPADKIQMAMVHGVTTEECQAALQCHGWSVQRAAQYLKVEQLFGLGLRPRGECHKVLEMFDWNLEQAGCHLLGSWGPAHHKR

Molecular target: Activated CDC42 kinase 1 (Homo sapiens, UniProt Q07912)
Assay: Inhibition of human ACK1 kinase activity using biotinylated ATGRYYAMKIL - AKT peptide substrate assessed as phosphorylation at 10 uM by ELISA
Assay type: single protein

Compound | inhibition [%]
Oc1ccc(Nc2ncc(Br)c(NCC3CCCO3)n2)cc1 (stereo not drawn) | 83
Brc1cnc(Nc2ccc(N3CCNCC3)cc2)nc1NCC1CCCO1 (racemic) | 85.5
Cc1cc(Nc2ncc(Br)c(NCC3CCCO3)n2)ccc1O (stereo not drawn) | 75.5
